Measurements reported in paper PMC9785202, “Changes in Disposition of Ezetimibe and Its Active Metabolites Induced by Impaired Hepatic Function: The Influence of Enzyme and Transporter Activities” (Pharmaceutics, 2022).

Amino acid sequences for entries named in this document (tags omitted). A change or cut given only in a name is not applied to a line headed by its entry.
UniProt Q9NPD5: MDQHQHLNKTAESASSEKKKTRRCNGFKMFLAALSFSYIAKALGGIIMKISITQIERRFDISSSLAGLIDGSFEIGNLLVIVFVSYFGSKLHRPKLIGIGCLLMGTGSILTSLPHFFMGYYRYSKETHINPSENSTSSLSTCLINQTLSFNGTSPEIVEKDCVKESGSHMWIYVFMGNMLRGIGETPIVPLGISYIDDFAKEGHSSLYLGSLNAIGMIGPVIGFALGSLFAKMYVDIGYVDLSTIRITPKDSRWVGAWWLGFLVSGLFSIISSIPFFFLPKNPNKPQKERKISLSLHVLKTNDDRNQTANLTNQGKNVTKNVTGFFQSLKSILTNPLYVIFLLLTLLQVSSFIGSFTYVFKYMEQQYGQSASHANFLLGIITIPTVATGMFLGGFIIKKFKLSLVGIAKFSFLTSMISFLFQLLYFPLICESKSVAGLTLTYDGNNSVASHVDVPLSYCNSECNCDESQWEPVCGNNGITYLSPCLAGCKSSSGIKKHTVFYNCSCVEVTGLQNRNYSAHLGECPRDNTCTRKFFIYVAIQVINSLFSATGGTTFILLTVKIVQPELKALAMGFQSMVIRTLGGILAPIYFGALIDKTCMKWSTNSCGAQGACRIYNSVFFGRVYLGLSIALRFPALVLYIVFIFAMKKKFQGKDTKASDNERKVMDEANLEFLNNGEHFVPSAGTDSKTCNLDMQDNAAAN

Target: OATP1B3 (Homo sapiens, UniProt Q9NPD5)
Experiment: Inhibition of OATP1B3-mediated uptake in OATP1B3-transfected HEK293 cells by bile acids and rifampicin
Conditions: inhibitor 200 μM, substrate EZE-Ph

`CO[C@H]1/C=C/O[C@@]2(C)Oc3c(C)c(O)c4c(O)c(c(/C=N/N5CCN(C)CC5)c(O)c4c3C2=O)NC(=O)/C(C)=C\C=C\[C@H](C)[C@H](O)[C@@H](C)[C@@H](O)[C@@H](C)[C@H](OC(C)=O)[C@@H]1C` [rifampicin, reference compound] was tested, and the “uptake of EZE-Ph in OATP1B3-expressing HEK293 cells in the presence of inhibitor” value was 7.94%.
